Tests used:
[1] = rat, in vivo
Meth A sarcoma = assay: Tumor cytotoxic activity (MTT); format: cell-based; conditions: Meth A cells, 5 days, serial dilution from 50 ng/mL, FIG. 9
Procedure: Tumor cytotoxic activities of TCF, TCF-3 and TCF-13 were measured. Meth A sarcoma was used as a target cell line. The cells were suspended in RPMI medium (GIBCO Co.) supplemented with 10% FCS at a final cell density of 2×10^4 cells per mL. Fifty microliters of the cell suspension was inoculated into each well in 96-well flat-bottomed microtiter plates. The purified TCF, TCF-3 and TCF-13 were serially diluted with RPMI medium from the concentration of 50 ng/mL, and the 50 μL of each diluted sample was added to each test well. After incubation at 37° C. for 5 days, MTT was added at a final concentration of 0.5 mg/ml and the plates were incubated at 37° C. Four hours later, 100 μL of the solution containing 10% SDS and […] was added to each well and left overnight at room temperature. Next day, the absorbance at 620 nm was measured as a parameter of the viable cell numbers in each well.

B1: TCF-13: modified TCF which lacks oligosaccharide chains 1 and 3 (protein)
chain: MWVTKLLPALLLQHVLLHLLLLPIAIPYAEGQRKRRNTIHEFKKSAKTTLIKIDPALKIKTKKVNTADQCANRCTRNKGLPFTCKAFVFDKARKQCLWFPFNSMSSGVKKEFGHEFDLYENKDYIRNCIIGKGRSYKGTVSITKSGIKCQPWSSMIPHEHSYRGKDLQENYCRNPRGEEGGPWCFTSNPEVRYEVCDIPQCSEVECMTCNGESYRGLMDHTESGKICQRWDHQTPHRHKFLPERYPDKGFDDNYCRNPDGQPRPWCYTLDPHTRWEYCAIKTCADNTMQDTDVPLETTECIQGQGEGYRGTVNTIWNGIPCQRWDSQYPHEHDMTPENFKCKDLRENYCRNPDGSESPWCFTTDPNIRVGYCSQIPNCDMSHGQDCYRGNGKNYMGNLSQTRSGLTCSMWDKNMEDLHRHIFWEPDASKLNENYCRNPDDDAHGPWCYTGNPLIPWDYCPISRCEGDTTPTIVNLDHPVISCAKTKQLRVVNGIPTRTNIGWMVSLRYRNKHICGGSLIKESWVLTARQCFPSRDLKDYEAWLGIHDVHGRGDEKCKQVLNVAQLVYGPEGSDLVLMKLARPAVLDDFVSTIDLPNYGCTIPEKTSCSVYGWGYTGLINYDGLLRVAHLYIMGNEKCSQHHRGKVTLNESEICAGAEKIGSGPCEGDYGGPLVCEQHKMRMVLGVIVPGRGCAIPNRPGIFVRVAYYAKWIHKIILTYKVPQS
Question: With B1 as the molecule, how does the “bioavailabilities (in words)” value [1] read?
Answer: larger bioavailabilities

Question: And the “AUC (in words)” value ([1]; iv)?
Answer: larger AUC

Question: What about the “CLtotal (total clearance)” value ([1]; iv) of the same molecule?
Answer: 6.0 ± 0.2 mL/min/kg

Question: What about the “metabolic fates (in words)” value ([1]; iv) of the same molecule?
Answer: slower metabolic fates

Question: What about the “plasma half-lives (in words)” value ([1]; iv) of the same molecule?
Answer: prolonged

Question: What about the “t1/2 α (plasma half-life of rapid phase)” value ([1]; iv) of the same molecule?
Answer: 3.8 ± 0.5 min

Question: What about the “t1/2 β (plasma half-life of slower phase)” value ([1]; iv) of the same molecule?
Answer: 24.9 ± 3.1 min

Question: What about the “total clearance (in words)” value ([1]; iv) of the same molecule?
Answer: decreased

Question: What about the “tumor cytotoxic activity (in words)” value (Meth A sarcoma) of the same molecule?
Answer: cytotoxic activities to Meth A cells in a dose-dependent manner

— patent US5648233A, “Modified tumor cytotoxic factor (TCF) and DNA encoding such” (Snow Brand Milk Products Co., Ltd., priority 1992, dated 1997)
